Earlier results, collected in article PMC9510668 (Frontiers in Pharmacology, 2022).

Settings: ref [1]; cited from earlier work

## CC(=O)N1CCN(c2ccc(OCC3COC(Cn4ccnc4)(c4ccc(Cl)cc4Cl)O3)cc2)CC1 (stereo not shown) [ketoconazole]
  Peff, human permeability: 1.24 ?10^-5 cm·s^-1
